# Measured affinities in a library of Ab-14 heavy chain variants

Data: MIT Lincoln Laboratory AlphaSeq set, Engelhart et al. 2022, doi:10.1038/s41597-022-01779-4, as distributed in FLAb.

The target is the same throughout: PDVDLGDISGINAS, from the HR2 region of SARS-CoV-2 spike.

Ab-14 is the parent antibody, in scFv form: VH, then three GGGGS repeats, then VL. The light chain is unchanged in all variants.
VH: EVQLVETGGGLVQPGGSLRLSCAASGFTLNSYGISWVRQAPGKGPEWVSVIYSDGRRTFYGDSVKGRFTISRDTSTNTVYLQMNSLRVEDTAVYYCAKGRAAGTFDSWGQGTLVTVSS
VL: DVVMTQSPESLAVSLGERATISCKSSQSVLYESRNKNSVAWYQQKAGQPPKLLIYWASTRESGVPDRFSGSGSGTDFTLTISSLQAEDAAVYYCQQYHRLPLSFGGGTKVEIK

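The parent was found by panning a naive human phage display library on the peptide. AAYL49 was designed without a model: most single CDR substitutions and a random sample of double and triple ones. The assay is AlphaSeq: two haploid yeast populations carry antibody and antigen on their surface. After mating in shaken culture at 30 °C for 16 h, diploids were selected and their barcode pairs sequenced. Scores were corrected for input abundance and mapped to Kd with protein pairs of known affinity run in the same pool. The assay was run in three technical replicates.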

Each variant is given by its three heavy chain CDRs, as the data file delimits them; those of the parent are GFTLNSYGIS, VIYSDGRRTFYGDSVK, GRAAGTFDS. All variants listed here change L29 of the VH, counted from its first residue. Each Kd is an estimate from the mating assay, the geometric mean of the replicates in which the pair was seen; lower is stronger. Where no diploid with the target was found in any replicate, the entry reads "nd": below detection, most likely a poor binder, though not proof of it. Empty control strains, which show no peptide, gave a signal in 15% of pairings with library AAYL49; the median was 11 µM and 95% of these signals were weaker than 680 nM. No background was subtracted. For reference, the parent read 4.4 nM as the reference entry and 13 µM (one replicate of three) as a member of this library.

Variant GFTVNSYGIS / VIYSDGRRTFYGTSVK / GRAAGTFDT gave 270 nM (3 of 3 replicates). With GFTNNSYGIS / VIYSDFRRTFYGDSVK / GRAAGTLDS the result was 7.5 µM (1 of 3 replicates). Variant GFTVNSYGIS / VAYSVGRRTFYGDSVK / GRAAGTFDS gave 17 µM (1 of 3 replicates). For GFAHNSYGIS / VIYSDGGRTFYGDSVK / GRAAGTFDS, the assay gave nd (0 of 3 replicates). Variant GFTGNSYGIS / VIYSDGRRTFYGDSVK / GRAAGCFDN showed nd (0 of 3 replicates). With GFTRNSYGIS / VIYSDGRRTFYGDSVK / GRAAGTYDS the result was 8.8 µM (2 of 3 replicates). Variant GFTFNSYGIS / VIYSDGRRTFYGYSVK / GRARGTFDS showed nd (0 of 3 replicates). With GFTDNSYWIS / VIYSDGRRTFMGDSVK / GRAAGTFDS the result was 21 µM (2 of 3 replicates). For GFTNNSYGIS / VIYSDGRRTDYGDSVK / GRAEGTFDS, the assay gave nd (0 of 3 replicates).

With GFTDPSYGIS / VIYSDRRRTFYGDSVK / GRAAGTFDS the result was 8.8 µM (1 of 3 replicates). Variant GFTSNSYGIS / VIYSDGRRTGYGDSVK / GRAAGTFDS showed 370 nM (3 of 3 replicates). Variant GFTCNSYGRS / VIYSDGRRTFYGDSVK / GRAAGTFDS showed nd (0 of 3 replicates). For GFTTTSYGIS / VIYSDGRRTMYGDSVK / GRAAGTFDS, the assay gave 160 nM (3 of 3 replicates). Variant GFEFNSYGIS / VIYSDGRRTFYGDSYK / GRAAGTFDS showed nd (0 of 3 replicates). For GFTINSYGIS / VIYSDGRRTFYGDMVC / GRAAGTFDS, the assay gave nd (0 of 3 replicates). Variant GFTINSYGIS / VIYSDGRRTFYGDSVK / GRAAGTFQS showed 720 nM (1 of 3 replicates). Variant WFKNNSYGIS / VIYSDGRRTFYGDSVK / GRAAGTFDS showed 3.9 mM (2 of 3 replicates). Variant GFTPNSYGIS / VIYSDGRRLFYGDSVE / GRAAGTFDS gave 130 µM (2 of 3 replicates).

With GFTHHSYGIS / VIYSDGRRTFYGDSVK / GRAWGTFDS the result was nd (0 of 3 replicates). Variant GFTVNSYGIP / VIYSDGRRTFYGDSVQ / GRAAGTFDS gave nd (0 of 3 replicates). For GFTTNSYLIS / VIYSDGRRTFYGDVVK / GRAAGTFDS, the assay gave nd (0 of 3 replicates). Variant GFTNNSYGIQ / VIYSDGRRTFYGDSVK / GRAAGTFDE showed nd (0 of 3 replicates). For GFTNNSYGIS / VIYSDGYRTFYGDSVK / GRAAGTSDS, the assay gave 570 nM (1 of 3 replicates). Variant GFTYNSYGIS / TIYSDGLRTFYGDSVK / GRAAGTFDS gave 2.3 µM (2 of 3 replicates). Variant GFTQNSYGIS / VIYIDGRRTFYGDSVK / GRAAGTNDS showed nd (0 of 3 replicates). For GFTNNSYGIS / VIYSDGRRTFYWDSVK / GRAAGTFDV, the assay gave 6.6 µM (1 of 3 replicates). Variant GFTDNSYGIS / VIYSDKRRTFYGDSVK / GRAARTFDS gave 30 µM (1 of 3 replicates).

With GHTNNSYGIS / VIYSDGRRTFYGDSVK / GRAAWTFDS the result was nd (0 of 3 replicates). Variant GFTVNRYGIS / VIYSDGRRTFYGDSVK / DRAAGTFDS gave nd (0 of 3 replicates). For GFTGNSYGIS / VIYSDGRRTFNGDSVK / GRAAGTFDS, the assay gave 3.7 µM (1 of 3 replicates). For GFTNNSYGIS / VIYSDGRRTFRGDSVK / GRAAKTFDS, the assay gave nd (0 of 3 replicates). With GFTVNSYGIS / VIYSDGRRTFYGDSVV / GRAAQTFDS the result was 6.7 µM (1 of 3 replicates). Variant GFTGNSYGIS / VIYSDGRRTFYGMQVK / GRAAGTFDS gave nd (0 of 3 replicates). Variant GFTKNSYGIS / VIYSDGRRTFYGDSVK / GEAAGTFDK showed 2.3 µM (3 of 3 replicates). Variant GFTWNSYGIS / VIYSDGRRTFYGDSVK / GWAAGTFDS showed 7.3 µM (1 of 3 replicates). For GFTPNSYGIS / VIYSDGRRTPYGDSVK / GQAAGTFDS, the assay gave nd (0 of 3 replicates).

For SFTENSYGIS / VIYSDGRRTIYGDSVK / GRAAGTFDS, the assay gave nd (0 of 3 replicates). With GFTHNSYGIS / VIYSDGRRTFYGDSNK / GRARGTFDS the result was 160 µM (1 of 3 replicates). For GFTENSYGIS / VIYSDGRRTFYGDSVK / GRAAGTFDS, the assay gave nd (0 of 3 replicates). Variant GFTDNSYGIS / VIYCDGRRTFYGDSVK / GRAAWTFDS showed nd (0 of 3 replicates). Variant GFTKNSYGIS / VIYSDGRRTFYGDSVM / GRAAGTADS showed 2.8 µM (2 of 3 replicates). Variant GFTRNSGGIS / VIYSDGRRTFYGDSVK / GRADGTFDS showed nd (0 of 3 replicates). For GFTRNSYGIS / VCYSDGRRTFYGDSVK / GRATGTFDS, the assay gave 100 µM (1 of 3 replicates). Variant RFTYNSYGIS / VIYSDGRRTFYGDSVK / GRAAHTFDS gave 64 µM (1 of 3 replicates). Variant GFTENSYGIG / VIYSDGRRTFYGLSVK / GRAAGTFDS showed 1.7 µM (1 of 3 replicates).

With GFTCRSYGIY / VIYSDGRRTFYGDSVK / GRAAGTFDS the result was nd (0 of 3 replicates). For GFTHNSFGIS / VIYSDGRRTFYGDSVK / GRAAGTMDS, the assay gave nd (0 of 3 replicates). Variant GFTKNIYGIS / VIYSDGRRTFYGDSVK / GRAAGTFWS gave nd (0 of 3 replicates).

The 4 strongest on average among those seen in every replicate, once more:

CDR-H1	CDR-H2	CDR-H3	Kd (apparent)	detected
GFTTTSYGIS	VIYSDGRRTMYGDSVK	GRAAGTFDS	160 nM	3 of 3
GFTVNSYGIS	VIYSDGRRTFYGTSVK	GRAAGTFDT	270 nM	3 of 3
GFTSNSYGIS	VIYSDGRRTGYGDSVK	GRAAGTFDS	370 nM	3 of 3
GFTKNSYGIS	VIYSDGRRTFYGDSVK	GEAAGTFDK	2.3 µM	3 of 3